Test results reported in patent publication US11472877 (Alector, dated 2022).

By UniProt entry, the sequences of proteins in these tests, tags left out. Chains listed by the source or under a name are the forms on record and can include a tag or linker. Residues count along the entry.
UniProt Q9NP99, 21-205 limits assumed, form in doubt: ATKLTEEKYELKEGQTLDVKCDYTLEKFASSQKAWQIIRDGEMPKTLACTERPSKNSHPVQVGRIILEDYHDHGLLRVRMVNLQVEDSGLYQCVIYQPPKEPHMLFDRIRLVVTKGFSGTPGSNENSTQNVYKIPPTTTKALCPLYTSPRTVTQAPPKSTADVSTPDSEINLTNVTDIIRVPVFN
UniProt Q9NP99, 21-234: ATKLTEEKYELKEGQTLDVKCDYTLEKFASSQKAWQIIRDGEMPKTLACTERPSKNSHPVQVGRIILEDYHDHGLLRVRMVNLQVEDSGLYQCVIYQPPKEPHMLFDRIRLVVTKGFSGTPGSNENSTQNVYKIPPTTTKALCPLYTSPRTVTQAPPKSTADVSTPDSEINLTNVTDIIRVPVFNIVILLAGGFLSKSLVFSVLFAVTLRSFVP

Legend:
[1] = target: T1, human TREM2 on BWZ cells (human, UniProt Q9NZC2 19-230); assay: FACS, BWZ human TREM2
T1 construct: whole, on cells; not tied to the cell line; also called BWZ Human TREM2
T1 sequence (looked up): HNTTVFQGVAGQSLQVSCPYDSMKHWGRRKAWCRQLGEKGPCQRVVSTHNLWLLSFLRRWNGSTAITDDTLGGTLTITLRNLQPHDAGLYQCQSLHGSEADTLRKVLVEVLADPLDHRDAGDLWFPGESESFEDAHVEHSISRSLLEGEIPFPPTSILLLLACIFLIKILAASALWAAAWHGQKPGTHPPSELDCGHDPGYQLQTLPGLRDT

[2] = target: human TREM1 (human, UniProt Q9NP99 21-205, limits assumed); assay: IgG, monovalent; method and antigen form not stated
[3] = target: T2, human TREM1 on cells (human, UniProt Q9NP99 21-234); assay: FACS, human neutrophils
T2 construct: Some reporter cells carry a human TREM1/CD3 zeta fusion instead; also called CHO-huT1; CHO-hT1

[4] = target: T3, mouse TREM2 on BWZ cells (mouse, UniProt Q99NH8 19-227); assay: FACS, BWZ mouse TREM2
T3 construct: whole, on cells; also called BWZ Mouse TREM2
T3 sequence (looked up): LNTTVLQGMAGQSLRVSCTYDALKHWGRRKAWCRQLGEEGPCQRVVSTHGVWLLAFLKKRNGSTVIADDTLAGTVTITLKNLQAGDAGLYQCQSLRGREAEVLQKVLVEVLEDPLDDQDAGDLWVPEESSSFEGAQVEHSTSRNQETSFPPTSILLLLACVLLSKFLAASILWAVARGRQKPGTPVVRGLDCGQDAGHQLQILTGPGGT

[5] = target: T4, mouse TREM1 on CHO cells (mouse, UniProt Q9JKE2 21-230); assay: FACS, CHO mouse TREM1
T4 construct: also called CHO-mT1
T4 sequence: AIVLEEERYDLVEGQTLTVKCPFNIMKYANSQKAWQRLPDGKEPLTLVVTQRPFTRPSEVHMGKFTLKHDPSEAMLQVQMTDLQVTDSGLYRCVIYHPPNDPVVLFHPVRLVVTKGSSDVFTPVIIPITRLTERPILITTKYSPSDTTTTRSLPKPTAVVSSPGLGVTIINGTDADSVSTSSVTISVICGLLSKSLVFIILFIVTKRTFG

[6] = target: T2, human TREM1 on cells; assay: FACS ligand blocking on CHO-huTREM1, 10 ug/mL IgG; competitor hPGLYRP1/PGN-BS
[7] = target: T2, human TREM1 on cells; assay: FACS, CHO human TREM1

B1: T1-40 (antibody, IgG1, V domains shown)
VH: EVQLVESGGGLVKPGGSLRLSCAASGFTFSSYSMNWVRQAPGKGLEWVSSISSSSSYIYYADSVKGRFTISRDNAKNSLYLQMNSLRAEDTAVYYCARTRIDDSFDIWGQGTMVTVSS
VL: not shown
notes: huIgG1; also called TI-40; ADI-19114
- FOB Fold Over Background [1]: 0.7 fold
- Kd [2]: 21.9 nM
- koff [2]: 0.00183 s⁻¹
- kon [2]: 83700 M⁻¹ s⁻¹
- FOB Fold Over Background [3]: 3.5 fold
- FOB Fold Over Background [4]: 1.1 fold
- FOB Fold Over Background [5]: 51 fold
- % ligand binding blocked [6]: ≥ 50%
- FOB Fold Over Background [7]: 458 fold

B2: T1-41 (antibody, IgG1, V domains shown)
VH: not shown
VL: DIQLTQSPSSVSASVGDRVTITCRASQDISSWLAWYQQKPGKAPKLLIYAASSLQSGVPSRFSGSGSGTDFTLTISSLQPEDFATYYCQQAVIHPPYTFGGGTKVEIK
notes: huIgG1; also called TI-41; ADI-19115
- FOB Fold Over Background [1]: 1 fold
- Kd [2]: 16.3 nM
- koff [2]: 0.00558 s⁻¹
- kon [2]: 343000 M⁻¹ s⁻¹
- FOB Fold Over Background [3]: 2.6 fold
- FOB Fold Over Background [4]: 1.6 fold
- FOB Fold Over Background [5]: 0.6 fold
- % ligand binding blocked [6]: ≥ 85%
- FOB Fold Over Background [7]: 445 fold

B3: T1-44 (antibody, IgG1, V domains shown)
VH: QVQLVQSGAEVKKPGASVKVSCKASGYTFTSYYMHWVRQAPGQGLEWMGVINPSGGSTSYAQKFQGRVTMTRDTSTSTVYMELSSLRSEDTAVYYCAREGSGYDESMDVWGQGTTVTVSS
VL: not shown
notes: huIgG1; also called TI-44; ADI-19119
- FOB Fold Over Background [1]: 0.9 fold
- Kd [2]: 28 nM
- koff [2]: 0.00384 s⁻¹
- kon [2]: 137000 M⁻¹ s⁻¹
- FOB Fold Over Background [3]: 3.1 fold
- FOB Fold Over Background [4]: 1.2 fold
- FOB Fold Over Background [5]: 8 fold
- % ligand binding blocked [6]: ≥ 50%
- FOB Fold Over Background [7]: 431 fold

B4: T1-45 (antibody, IgG1, V domains shown)
VH: QVQLVQSGAEVKKPGASVKVSCKASGYTFTSYYMHWVRQAPGQGLEWMGVINPSGGSTSYAQKFQGRVTMTRDTSTSTVYMELSSLRSEDTAVYYCAREGSGYDESMDVWGQGTTVTVSS
VL: not shown
notes: huIgG1; also called TI-45; ADI-19123
- FOB Fold Over Background [1]: 1 fold
- Kd [2]: 10.7 nM
- koff [2]: 0.000981 s⁻¹
- kon [2]: 92100 M⁻¹ s⁻¹
- FOB Fold Over Background [3]: 5.4 fold
- FOB Fold Over Background [4]: 1.2 fold
- FOB Fold Over Background [5]: 0.8 fold
- % ligand binding blocked [6]: ≥ 50%
- FOB Fold Over Background [7]: 446 fold

B5: T1-48 (antibody, IgG1, V domains shown)
VH: QVQLVQSGAEVKKPGASVKVSCKASGYTFTSYYMHWVRQAPGQGLEWMGVINPGGGSTSYAQKFQGRVTMTRDTSTSTVYMELSSLRSEDTAVYYCAREAGQTSSALDVWGQGTMVTVSS
VL: not shown
notes: huIgG1; also called TI-48; ADI-19121
- FOB Fold Over Background [1]: 1.2 fold
- Kd [2]: 60 nM
- koff [2]: 0.00529 s⁻¹
- kon [2]: 88200 M⁻¹ s⁻¹
- FOB Fold Over Background [3]: 4 fold
- FOB Fold Over Background [4]: 1 fold
- FOB Fold Over Background [5]: 8.4 fold
- % ligand binding blocked [6]: ≥ 50%
- FOB Fold Over Background [7]: 291 fold

B6: T1-49 (antibody, IgG1, V domains shown)
VH: QVQLVQSGAEVKKPGASVKVSCKASGYTFTSYYMHWVRQAPGQGLEWMGIINPSGGSTSYAQKFQGRVTMTRDTSTSTVYMELSSLRSEDTAVYYCAREAGSWLISTAFDIWGQGTMVTVSS
VL: not shown
notes: huIgG1; also called TI-49; ADI-19122
- Kd [2]: 9.46 nM
- koff [2]: 0.000848 s⁻¹
- kon [2]: 89600 M⁻¹ s⁻¹
- FOB Fold Over Background [3]: 4.9 fold
- FOB Fold Over Background [4]: 0.9 fold
- FOB Fold Over Background [5]: 16.3 fold
- % ligand binding blocked [6]: ≥ 50%
- FOB Fold Over Background [7]: 504 fold

B7: T1-59 (antibody, IgG1, V domains shown)
VH: QVQLQESGPGLVKPSETLSLTCAVSGYSISSGYYWAWIRQPPGKGLEWIGSIYHSGSTYYNPSLKSRVTISVDTSKNQFSLKLSSVTAADTAVYYCARDLGGYEGAFDPWGQGTLVTVSS
VL: not shown
notes: huIgG1; also called TI-59; ADI-19135
- FOB Fold Over Background [1]: 0.9 fold
- Kd [2]: 23.2 nM
- koff [2]: 0.00301 s⁻¹
- kon [2]: 130000 M⁻¹ s⁻¹
- FOB Fold Over Background [3]: 5.3 fold
- FOB Fold Over Background [4]: 1.2 fold
- FOB Fold Over Background [5]: 1.5 fold
- % ligand binding blocked [6]: ≥ 50%
- FOB Fold Over Background [7]: 432 fold

B8: T1-63 (antibody, IgG1, V domains shown)
VH: QVQLQESGPGLVKPSETLSLTCAVSGYSISSGYYWGWIRQPPGKGLEWIGSIYHSGNTYYNPSLKSRVTISVDTSKNQFSLKLSSVTAADTAVYYCARELYAYSSPMFYGMDVWGRGTTVTVSS
VL: DIQMTQSPSSLSASVGDRVTITCRASQSISRYLNWYQQKPGKAPKLLIYAASSLQSGVPSRFSGSGSGTDFTLTISSLQPEDFATYYCQQLYHAPPITFGGGTKVEIK
notes: huIgG1; also called TI-63; ADI-19139
- FOB Fold Over Background [1]: 1.1 fold
- Kd [2]: 29.9 nM
- koff [2]: 0.00661 s⁻¹
- kon [2]: 221000 M⁻¹ s⁻¹
- FOB Fold Over Background [3]: 8.7 fold
- FOB Fold Over Background [4]: 1.2 fold
- % ligand binding blocked [6]: ≥ 50%
- FOB Fold Over Background [7]: 502 fold

B9: T1-64 (antibody, IgG1, V domains shown)
VH: QLQLQESGPGLVKPSETLSLTCTVSGGSISSSSYYWGWIRQPPGKGLEWIGSISYSGSTYYNPSLKSRVTISVDTSKNQFSLKLSSVTAADTAVYYCARYYSPYGMDVWGQGTTVTVSS
VL: not shown
notes: huIgG1; also called TI-64; ADI-19140
- FOB Fold Over Background [1]: 1 fold
- Kd [2]: 216 nM
- koff [2]: 0.0136 s⁻¹
- kon [2]: 63100 M⁻¹ s⁻¹
- FOB Fold Over Background [3]: 4.7 fold
- FOB Fold Over Background [4]: 1.2 fold
- FOB Fold Over Background [5]: 0.7 fold
- % ligand binding blocked [6]: ≥ 50%
- FOB Fold Over Background [7]: 410 fold

B10: T1-65 (antibody, IgG1, V domains shown)
VH: QLQLQESGPGLVKPSETLSLTCTVSGGSISSSDYYWGWIRQPPGKGLEWIGSIYYSGSTYYNPSLKSRVTISVDTSKNQFSLKLSSVTAADTAVYYCARDSGQYTGSLDVWGQGTMVTVSS
VL: not shown
notes: huIgG1; also called TI-65; ADI-19141
- FOB Fold Over Background [1]: 1 fold
- Kd [2]: 271 nM
- koff [2]: 0.0285 s⁻¹
- kon [2]: 105000 M⁻¹ s⁻¹
- FOB Fold Over Background [3]: 2.2 fold
- FOB Fold Over Background [4]: 1.4 fold
- FOB Fold Over Background [5]: 1.4 fold
- % ligand binding blocked [6]: ≥ 50%
- FOB Fold Over Background [7]: 400 fold

B11: T1-68 (antibody, IgG1, V domains shown)
VH: EVQLVQSGAEVKKPGESLKISCKGSGYSFTTYWIGWVRQMPGKGLEWMGIIYPGDSDTRYSPSFQGQVTISADKSISTAYLQWSSLKASDTAMYYCARGSPWDGRLFDIWGQGTMVTVSS
VL: EIVLTQSPATLSLSPGERATLSCRASQSVSSYLAWYQQKPGQAPRLLIYDASNRATGIPARFSGSGSGTDFTLTISSLEPEDFAVYYCQQFDNLPYTFGGGTKVEIK
notes: huIgG1; also called TI-68; ADI-19144
- FOB Fold Over Background [1]: 0.9 fold
- Kd [2]: 38.2 nM
- koff [2]: 0.0194 s⁻¹
- kon [2]: 508000 M⁻¹ s⁻¹
- FOB Fold Over Background [3]: 2.2 fold
- FOB Fold Over Background [4]: 1.1 fold
- FOB Fold Over Background [5]: 1 fold
- % ligand binding blocked [6]: ≥ 85%
- FOB Fold Over Background [7]: 411 fold

B12: T1-51 (antibody, IgG1, V domains shown)
VH: QVQLVQSGAEVKKPGSSVKVSCKASGGTFSSYAISWVRQAPGQGLEWMGSIIPIFGTANYAQKFQGRVTITADESTSTAYMELSSLRSEDTAVYYCARSGGYSSSWYGTGYDYWGQGTLVTVSS
VL: DIQMTQSPSTLSASVGDRVTITCRASQSISSWLAWYQQKPGKAPKLLIYKASSLESGVPSRFSGSGSGTEFTLTISSLQPDDFATYYCQQFQSYPFTFGGGTKVEIK
notes: huIgG1; also called TI-51; ADI-19126
- FOB Fold Over Background [1]: 0.9 fold
- FOB Fold Over Background [3]: 2.4 fold
- FOB Fold Over Background [4]: 1.1 fold
- FOB Fold Over Background [5]: 4.1 fold
- % ligand binding blocked [6]: ≥ 85%
- FOB Fold Over Background [7]: 500 fold
